Legend:
Assay type in all cases: in vivo, BALB/c mice
anti-SRBC antibody = test: Sheep Red Blood Cell (SRBC) hemolysis test, antibody formation; conditions: healthy mice, SRBC day 12 (IFN-γ, IL-2 3×10^5 IU/kg/day), saline 32 ± 7
Protocol: Sheep red blood cells (SRBC) were prepared by collecting blood from cervical vein and put into a sterile flask with glass beads. The flask was shaken for 3 minutes and the blood then mixed with Alsever solution (glucose 2.05 g, NaCl 0.4 g, […] 0.8 g, adjust to 100 ml with distilled water) and stored at 4° C. Immediately before use, samples were centrifuged at 130 g, 5 minutes to collect the SRBC. The cells were washed two times by re-suspension and centrifugation in normal saline. Then the cell pellet was collected by centrifugation at 180 g for 10 minutes and re-suspended in saline to make the final working SRBC suspension, 2% (v/v).
Complement was prepared by adding 10 volumes of fresh Cavy serum into one volume centrifuge packed SRBC, and then gently shaking for 30 minutes at 4° C. The SRBC was removed by centrifugation at 200 g for 10 minutes. 10 volumes of normal saline were added to obtain the working complement solution.
The BALB/c mice were randomly divided into the peptide group, IFN group, IL-2 group, and saline group, 10 mice per group. The test substances were administered as described in section 1.1, plus intraperitoneal injection 0.2 ml SRBC per mouse on day 12. On the day after the last test substance administration (day 16), blood was collected from the eye canthus and left at room temperature for one hour for serum exudation. After centrifugation at 200 g for 10 minutes, the serum was diluted by 500 times with normal saline.
To 1 ml diluted mouse serum of each mouse, 0.5 ml SRBC suspension was added. Ice cold. Then 1 ml working complement solution was added and incubated at 37° C. water bath for 10 minutes. Reactions were terminated by ice cold. Samples were then centrifuged at 200 g for 10 minutes to obtain the supernatant.
To 1 ml of this supernatant, 3 ml Drabkin solution was added and left at room temperature for 10 minutes. OD540 nm was obtained.
Reference OD540 nm was obtained by mixing 0.25 ml SRBC suspension with Drabkin solution to 4 ml and placed at room temperature for 10 minutes before OD540 nm was taken.
Sample serum index=(OD540 nm of test sample÷reference OD540 nm)×500

T lymphocyte = T lymphocyte transformation in mice with ascitic fluid type liver cancer H22; conditions: controls: rhIL-2, rmIFN-γ 3 × 10^5 IU/kg, cyclophosphamide 20 mg/kg, saline 1.25 ± 0.07
Protocol: Healthy BALB/c mice were randomised into peptide group, rmIFN-γ group, rhIL-2 group, and saline group, 15 mice per group, and prepared into H22 carrying mice model as described in section Method 3. After implantation of the cancer cells, the test substances were administered for 15 days, the mice were killed by cervical dislocation. The spleen was isolated aseptically and manually dispersed in cold D-Hank's solution using an injection needle. The dispersed cell suspension was further sieved through a 100-gauge 150 μm diameter stainless steel sieve. After centrifugation at 200 g for 10 minutes, the supernatant was discarded. The cell pellet was re-suspended in 10 volume of Tris-NH4Cl buffer and then kept standing still for 10 minutes at room temperature. The suspended cells were collected by centrifugation at 150 g for 10 minutes. The cells were washed 2-4 times with cold D-Hank's solution by re-suspending and collecting by centrifugation with condition as described above. The washed cells were then diluted to the desired cell densities by RPMI-1640 culture medium, containing 10% fetal bovine serum. […]
50 μl/well MTT of 1 mg/ml in RPMI-1640 was added to the cell pellet and the cells re-suspended by shaking for 2 minutes. […] Use an ELISA reader to obtain OD570 nm of each well referenced at 630 nm. […]

NK cell = NK cell activity in mice with ascitic fluid type liver cancer H22; conditions: controls: IL-2, IFN-γ 3 × 10^5 IU/kg, cyclophosphamide 20 mg/kg, saline 24.0 ± 8.2
Protocol: Healthy BALB/c mice were randomised into peptide group, rmIFN-γ group, rhIL-2 group, and saline group, 15 mice per group, and prepared into H22 carrying mice model as described in section Method 3. After implantation of the cancer cells, the test substances were administered for 15 days, the mice were killed by cervical dislocation. The spleen was isolated aseptically and manually dispersed in cold D-Hank's solution using an injection needle. The dispersed cell suspension was further sieved through a 100-gauge 150 μm diameter stainless steel sieve. After centrifugation at 200 g for 10 minutes, the supernatant was discarded. The cell pellet was re-suspended in 10 volume of Tris-NH4Cl buffer and then kept standing still for 10 minutes at room temperature. The suspended cells were collected by centrifugation at 150 g for 10 minutes. The cells were washed 2-4 times with cold D-Hank's solution by re-suspending and collecting by centrifugation with condition as described above. The washed cells were then diluted to the desired cell densities by RPMI-1640 culture medium, containing 10% fetal bovine serum.
Mice spleen cells were prepared to 4×10^6/ml as described in section 4.1 above. […]
Samples were centrifuged at 150 g for 10 minutes to collect the cells. […] An ELISA reader was used to obtain OD570 nm of each well referenced at 630 nm. […]

With “IL-2: recombinant human IL (rhIL)-2, Shanghai Huaxin Biotech Inc.; positive control” the “anti-SRBC antibody formation, X ± SD (Unit)” value (anti-SRBC antibody; peptide 0.5 μg/kg/day i.p. 15 days) was 71 ± 11 Unit, the “anti-SRBC antibody formation, X ± SD (Unit)” value (anti-SRBC antibody; peptide 5 μg/kg/day i.p. 15 days) was 71 ± 11 Unit and the “anti-SRBC antibody formation, X ± SD (Unit)” value (anti-SRBC antibody; peptide 50 μg/kg/day i.p. 15 days) was 71 ± 11 Unit. The “anti-SRBC antibody formation, X ± SD (Unit)” value (anti-SRBC antibody; peptide 500 μg/kg/day i.p. 15 days) was 71 ± 11 Unit, the Stimulation index (T lymphocyte) was 1.46 ± 0.21 and the “NK activity index (%)” value (NK cell) was 26.0 ± 9.0%.
